Source: patent publication US3994901A, “5-[1-Hydroxy-2-(s ubstituted-amino)]alkyl-8-hydroxy-3,4-dihydrocarbostyril derivatives” (Otsuka Pharmaceutical Company Limited, priority 1974, dated 1976)

How the values were obtained:
in vivo = details: rat, male rats (dd strain), fasted 12 hours
male rats (dd strain) = details: p.o., *Literature values; cited from earlier work

## CC(C)NCC(O)c1ccc(O)c(O)c1 (stereo not drawn) [Isoproterenol]
In vivo; iv, I.v.
  LD50: 112 mg/kg
In vivo; po
  LD50: 355 mg/kg
Male rats (dd strain)
  LD50 (50% lethal dose): 2587 mg/kg
